# Experimental data reported in PubChem BioAssay AID2751 (The Scripps Research Institute Molecular Screening Center, 2010).
# Protein sequences, listed by entry. Tags and fused reporters are not part of them.
# UniProt Q4J6C6, whole entry: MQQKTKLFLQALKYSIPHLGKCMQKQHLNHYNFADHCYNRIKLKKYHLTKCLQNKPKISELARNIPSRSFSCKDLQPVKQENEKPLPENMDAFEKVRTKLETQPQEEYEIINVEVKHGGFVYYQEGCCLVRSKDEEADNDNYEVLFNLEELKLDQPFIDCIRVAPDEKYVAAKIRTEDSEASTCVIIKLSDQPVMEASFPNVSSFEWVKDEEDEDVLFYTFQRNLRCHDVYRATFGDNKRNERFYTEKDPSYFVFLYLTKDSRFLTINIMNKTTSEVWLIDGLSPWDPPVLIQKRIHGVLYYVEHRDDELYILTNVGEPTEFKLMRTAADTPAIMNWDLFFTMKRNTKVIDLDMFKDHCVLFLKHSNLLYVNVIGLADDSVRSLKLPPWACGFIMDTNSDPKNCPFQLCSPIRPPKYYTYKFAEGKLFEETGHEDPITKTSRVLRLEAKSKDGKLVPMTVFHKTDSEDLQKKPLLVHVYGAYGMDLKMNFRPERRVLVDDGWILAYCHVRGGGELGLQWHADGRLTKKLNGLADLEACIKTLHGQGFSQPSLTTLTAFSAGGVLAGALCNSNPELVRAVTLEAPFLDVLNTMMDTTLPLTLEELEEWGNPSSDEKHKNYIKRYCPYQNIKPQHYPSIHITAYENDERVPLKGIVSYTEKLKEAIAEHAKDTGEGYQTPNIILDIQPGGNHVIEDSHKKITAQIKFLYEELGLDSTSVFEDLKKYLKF
# The list shows a part of the results, in another mix than the full data. Activity calls are given as the source filed them. Cut-off read from the data, not from the text of the source: active = inhibition above about 43%; inactive = the rest.
# Biological target: Prolyl endopeptidase-like (Homo sapiens) (UniProt Q4J6C6)
# Assay: PREPL enzyme inhibitors, primary screen, biochemical, fluorescence polarization (AID 2751);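 note: 0% = enzyme with DMSO and 100% = wells lacking enzyme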
# Conditions: recombinant PREPL, fluorescence polarization activity-based probe; at 5.96 µM; active compounds read high
row,Compound,inhibition
1,CCOC(=O)c1ccc(NP(C)(=O)Oc2ccc(F)cc2)cc1 (stereo not drawn),inactive: 3.22%
2,COc1ccc(OP(C)(=O)Nc2ccc(SC(F)(F)F)cc2)cc1 (stereo not drawn),inactive: -13.5%
3,CCN(CC)CCCOC(=O)C(O)(c1ccccc1)C1CCCCC1 (stereo not drawn),inactive: -1.58%
4,CP(=O)(Nc1ccccc1)Oc1ccc(F)cc1 (stereo not drawn),inactive: 4.51%
5,O=[N+]([O-])c1cc([N+](=O)[O-])c(OC2CCCCC2O)c([N+](=O)[O-])c1 (stereo not drawn),inactive: -7.6%
6,CCCCCOc1ccc(NP(C)(=O)Oc2ccc(Cl)cc2Cl)cc1 (stereo not drawn),inactive: 4.84%
7,Cc1cc(C)cc(OP(C)(=O)Nc2cccc(C(F)(F)F)c2)c1 (stereo not drawn),inactive: -5.12%
8,COc1ccccc1OP(C)(=O)Nc1ccc(C)c(C)c1 (stereo not drawn),inactive: 3.35%
9,COc1ccc(OP(C)(=O)Nc2ccccc2Br)cc1 (stereo not drawn),inactive: 3.44%
10,Cc1nc2ccc3ccccc3c2o1.O=[N+]([O-])c1cc([N+](=O)[O-])c(O)c([N+](=O)[O-])c1,inactive: -7.67%
11,CP(=O)(OCCOc1ccccc1)OCCOc1ccccc1,inactive: -13.3%
12,CP(=O)(Nc1ccc(Cl)cc1Cl)Oc1ccccc1 (stereo not drawn),inactive: -3.22%
13,COc1ccccc1OP(C)(=O)Nc1ccc(Br)cc1 (stereo not drawn),inactive: 5.15%
14,COc1ccc(OP(C)(=O)Nc2ccccn2)cc1 (stereo not drawn),inactive: -1.55%
15,CN(C)CCOC(=O)C(O)(c1ccccc1)C1CCCC1 (stereo not drawn),inactive: -0.8%
16,O=[N+]([O-])c1cc([N+](=O)[O-])c(Nc2ccccn2)c([N+](=O)[O-])c1,inactive: 13.8%
17,Cc1c(NP(C)(=O)Oc2ccc(C(C)C)cc2)c(=O)n(-c2ccccc2)n1C (stereo not drawn),inactive: 2.14%

row,Compound,inhibition
1,COc1ccccc1OP(C)(=O)Nc1ccc(C)cc1C (stereo not drawn),inactive: 6.45%
2,CP(=O)(Nc1ccccn1)Oc1ccccc1 (stereo not drawn),inactive: -0.28%
3,CCc1ccc(OP(C)(=O)O)cc1,inactive: 0.29%
4,COc1ccc(OP(C)(=O)Nc2ccc(Br)cc2)cc1 (stereo not drawn),inactive: -17.2%
5,CCN(CC)CC(O)COC(=O)C(O)(c1ccccc1)C1CCCCC1 (stereo not drawn),inactive: -1.51%
6,O=C(OCCCN1CCCC1)C(O)(c1ccccc1)C1CCCCC1 (stereo not drawn),inactive: 1.74%
7,COc1ccccc1OP(C)(=O)Nc1c(C)n(C)n(-c2ccccc2)c1=O (stereo not drawn),inactive: 7.76%
8,CCc1ccc(OP(C)(=O)Nc2cccnc2)cc1 (stereo not drawn),inactive: -2.42%
9,CP(=O)(Oc1ccccc1)N1CCOC1=O (stereo not drawn),inactive: -4.55%
10,CC(C)(C)c1ccc(OP(C)(=O)O)cc1,inactive: 13.1%
11,COc1ccccc1OP(C)(=O)Nc1ccccc1Br (stereo not drawn),inactive: -1.89%
12,CP(=O)(Nc1ccc(Cl)cc1)Oc1ccc(F)cc1 (stereo not drawn),inactive: 0.25%
13,CN(C)C(=O)c1c([N+](=O)[O-])cc([N+](=O)[O-])cc1[N+](=O)[O-],inactive: -3.32%
14,Nc1ccc2c(ccc3cccnc32)n1.O=[N+]([O-])c1cc([N+](=O)[O-])c(O)c([N+](=O)[O-])c1,inactive: 17.7%
15,CCOC(=O)c1ccc(NP(C)(=O)Oc2ccc(Cl)cc2)cc1 (stereo not drawn),inactive: -17.8%
16,CP(=O)(OC12CC3CC(CC(C3)C1)C2)OC12CC3CC(CC(C3)C1)C2,inactive: 13.4%
